Measured values reported in ChEMBL document CHEMBL5385922 (J Med Chem, 2024).
The source made the active and inactive calls. No cut-off for these calls is given here.

The chains behind the UniProt entries cited, without tags or fusion partners. Where a name states a change or a piece, a line headed by the entry shows the natural chain unless it says otherwise.
UniProt P07237: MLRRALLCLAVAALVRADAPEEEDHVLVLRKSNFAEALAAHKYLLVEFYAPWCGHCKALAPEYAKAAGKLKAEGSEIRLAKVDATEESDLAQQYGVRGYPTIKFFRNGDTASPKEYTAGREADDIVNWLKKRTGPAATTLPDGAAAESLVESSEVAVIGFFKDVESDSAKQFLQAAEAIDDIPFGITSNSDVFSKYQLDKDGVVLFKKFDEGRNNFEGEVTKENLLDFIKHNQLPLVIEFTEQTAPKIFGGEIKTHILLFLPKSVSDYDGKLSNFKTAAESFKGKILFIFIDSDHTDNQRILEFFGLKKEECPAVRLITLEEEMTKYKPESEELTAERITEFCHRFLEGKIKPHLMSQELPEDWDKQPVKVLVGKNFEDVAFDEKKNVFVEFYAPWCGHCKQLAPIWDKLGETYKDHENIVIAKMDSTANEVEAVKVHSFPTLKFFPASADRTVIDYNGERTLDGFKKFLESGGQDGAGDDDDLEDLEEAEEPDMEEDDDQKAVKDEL

Assays:
[1] = target: Protein disulfide-isomerase (Homo sapiens, UniProt P07237); test: Covalent inhibition of human recombinant PDI assessed as inhibition of E-GSH formation using Di-E-GSSG as substrate at 10 uM measured for 60 mins in presence of DTT and 1 mM GSH by fluorescence based analysis
How it was run: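 Human rPDI incubated with compounds at 10 μM in the presence of DTT (5 μM) or GSH (1 mM). PDI activity read by Di-E-GSSG assay (E-GSH fluorescence). Mean ± SEM of three independent experiments.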

Platelet = test: Antiplatelet activity in human platelets assessed as inhibition of collagen-induced platelet aggregation by turbidimetric analysis; type: functional, cell-based

SMILES	inhibition [1]	IC50 (Platelet) [µM]
O=C1C=CC(=O)c2c(O)cccc21	Active	
CC(=O)Oc1ccccc1C(=O)O [ASPIRIN]		157
